The results in this text go back to US9861706B2, “GLP-1 receptor agonist peptide gastrin conjugates” (priority 2011, dated 2018).

The target of the assay is human GLP-1 receptor (human) (UniProt P43220). Nature of the assay: cell-based or functional assay.

Substance Exendin-4(1-39) (peptide) returned an EC50, cAMP induction in HEK293 cells expressing human GLP-1 R of 0.017 nM.
